In this assay the target is Lck (Homo sapiens, UniProt P06239). Briefly: Biochemical Lck kinase assay (TR-FRET, LANCE). Particulars: read-out: IC50 values in the Lck assay; 50% inhibition of the kinase reaction, at least 8 concentrations. (TR-FRET usually uses a lanthanide donor and a delayed reading to cut background.)

Protein sequences, listed by entry. Tags and fused reporters are not part of them.
UniProt P06239, whole entry: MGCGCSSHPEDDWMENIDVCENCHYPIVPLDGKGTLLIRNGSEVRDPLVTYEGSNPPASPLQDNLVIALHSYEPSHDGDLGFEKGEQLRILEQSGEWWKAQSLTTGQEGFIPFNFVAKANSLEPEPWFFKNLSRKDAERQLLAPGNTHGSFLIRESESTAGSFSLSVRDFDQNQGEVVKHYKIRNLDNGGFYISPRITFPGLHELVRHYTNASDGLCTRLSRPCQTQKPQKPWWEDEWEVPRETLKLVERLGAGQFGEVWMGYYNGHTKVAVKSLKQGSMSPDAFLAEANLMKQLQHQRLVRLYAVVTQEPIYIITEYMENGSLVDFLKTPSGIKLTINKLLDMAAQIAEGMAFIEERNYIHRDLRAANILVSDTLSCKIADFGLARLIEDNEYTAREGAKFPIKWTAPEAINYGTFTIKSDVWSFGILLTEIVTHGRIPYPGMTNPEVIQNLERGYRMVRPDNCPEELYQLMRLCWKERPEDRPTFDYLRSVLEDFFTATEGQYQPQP

With `CN1CCN(c2cccc(-c3cnn4c(N)c(-c5ccc(NC(=O)Nc6ccc(F)cc6)cc5)cnc34)c2)CC1`, the IC50 came to 18 nM.
On to `CCCOC(=O)Nc1ccc(-c2cnc3c(-c4ccc(N5CCN(C)CC5)cc4)cnn3c2N)cc1`, for which the IC50 is 16 nM.

One may read the IC50 as the midpoint of a concentration-inhibition curve.

The record behind these values is patent US20100029636A1, “Lck inhibitors” (priority 2006, published 2010).
